# Antibody variant affinities, Ab-14 light chain, assay B

Target peptide (SARS-CoV-2 spike, HR2 region): PDVDLGDISGINAS

Parent: Ab-14, a human scFv built as VH, a (GGGGS)3 linker, VL. Only the CDRs of the light chain vary.
VH: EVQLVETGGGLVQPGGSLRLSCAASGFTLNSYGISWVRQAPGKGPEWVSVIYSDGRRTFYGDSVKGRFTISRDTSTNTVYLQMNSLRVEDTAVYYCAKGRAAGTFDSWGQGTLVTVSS
VL: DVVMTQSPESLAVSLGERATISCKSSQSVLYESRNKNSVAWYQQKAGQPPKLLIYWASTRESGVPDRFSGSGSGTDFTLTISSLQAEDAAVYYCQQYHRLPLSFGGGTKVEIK

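Phage display of a naive human antibody library on the peptide gave the parent. These sequences belong to a second round, designed from the earlier measurements on random variants of the parent. Group labels follow the data file (Ctrl: baseline library sampled from a position-specific scoring matrix, with some repeated check sequences; En: ensemble of fine-tuned language models; GP: Gaussian process model; HC: hill climbing; Gen: genetic algorithm; Gibbs: Gibbs sampling; a sequence that several methods proposed may carry one label only). AlphaSeq pools MATa yeast showing the antibodies with MATalpha yeast showing the peptide. The frequency of each diploid, read from paired DNA barcodes, reflects how well the two displayed proteins bind. The ratio of observed to expected reads was calibrated, replicate by replicate, on BCL2-family standards whose Kd was known from biolayer interferometry. There are six technical replicates.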

Each variant is given by its three light chain CDRs, as the data file delimits them; those of the parent are KSSQSVLYESRNKNSVA, WASTRES, QQYHRLPLS. Affinities are written as log10 Kd with Kd in nM; a lower number is a better binder. The mean shown is taken over the replicates in which the pair was detected. A pair that was not seen in any replicate is written "nd"; this usually means weak binding, but a binder can also be missed.

{"CDR-L1": "IVSQLMLWGMHAKNSIA", "CDR-L2": "EAETRIN", "CDR-L3": "QQYERLPLF", "group": "En_Gen", "mean log10 Kd (nM)": "2.36", "seen in": "4/6", "signal with controls": "0/18"}
{"CDR-L1": "TIGQSTLMESRQKNNVA", "CDR-L2": "QMSTREK", "CDR-L3": "QQYDRLPLS", "group": "En_HC", "mean log10 Kd (nM)": "0.07", "seen in": "6/6", "signal with controls": "0/18"}
{"CDR-L1": "KLSNSVNYLSRVMNSVA", "CDR-L2": "DNSTRES", "CDR-L3": "QQYFRLPLS", "group": "En_HC", "mean log10 Kd (nM)": "0.20", "seen in": "6/6", "signal with controls": "1/18"}
{"CDR-L1": "HSSQSVDYESRNKNSVA", "CDR-L2": "DASTRES", "CDR-L3": "QQYHRLPLS", "group": "GP_HC", "mean log10 Kd (nM)": "-0.03", "seen in": "6/6", "signal with controls": "0/18"}
{"CDR-L1": "SISQFMKSLSAHINNVA", "CDR-L2": "DMTNRED", "CDR-L3": "QQYDRLPLS", "group": "En_Gen", "mean log10 Kd (nM)": "0.41", "seen in": "6/6", "signal with controls": "3/18"}
{"CDR-L1": "KSSQSVLYSSRNKNSVA", "CDR-L2": "WASTRES", "CDR-L3": "QQYHRLELS", "group": "Ctrl", "mean log10 Kd (nM)": "nd", "seen in": "0/6", "signal with controls": "0/18"}
{"CDR-L1": "KLSCSVLYESRNKNSVA", "CDR-L2": "EASTRES", "CDR-L3": "QQYHRLPLS", "group": "GP_Gen", "mean log10 Kd (nM)": "0.02", "seen in": "6/6", "signal with controls": "1/18"}
{"CDR-L1": "KLWQSVPYESRNKNSVA", "CDR-L2": "NASTRES", "CDR-L3": "QQYHRLPLS", "group": "GP_Gen", "mean log10 Kd (nM)": "0.68", "seen in": "6/6", "signal with controls": "0/18"}
{"CDR-L1": "RIQDHHAEGEMRHSSIA", "CDR-L2": "EESYRMD", "CDR-L3": "QQYSRLPLA", "group": "En_Gibbs", "mean log10 Kd (nM)": "0.51", "seen in": "6/6", "signal with controls": "0/18"}
{"CDR-L1": "KCQGSQLYESRNKNAVA", "CDR-L2": "NASTRLD", "CDR-L3": "QQYHRLPLS", "group": "GP_Gibbs", "mean log10 Kd (nM)": "0.32", "seen in": "6/6", "signal with controls": "0/18"}
{"CDR-L1": "KFSQQVLYESRVKNSVA", "CDR-L2": "NASQRLS", "CDR-L3": "QQYHRLPLS", "group": "GP_Gibbs", "mean log10 Kd (nM)": "0.58", "seen in": "6/6", "signal with controls": "3/18"}
{"CDR-L1": "KLSQLMLYGSRNKNSVA", "CDR-L2": "WASTRES", "CDR-L3": "QQYSRLPLS", "group": "Ctrl", "mean log10 Kd (nM)": "0.14", "seen in": "6/6", "signal with controls": "0/18"}
{"CDR-L1": "KCSHSVLYESQNKNSVA", "CDR-L2": "EASTRES", "CDR-L3": "QQYHRLPLS", "group": "Ctrl", "mean log10 Kd (nM)": "0.00", "seen in": "6/6", "signal with controls": "2/18"}
{"CDR-L1": "KMEQGVLYESRNKNSVA", "CDR-L2": "NASVRES", "CDR-L3": "QQYHRLPLS", "group": "GP_HC", "mean log10 Kd (nM)": "-0.32", "seen in": "6/6", "signal with controls": "1/18"}
{"CDR-L1": "QLSLMENHMGDRMHNVA", "CDR-L2": "DTNQAKT", "CDR-L3": "QDYFRLPLM", "group": "En_Gibbs", "mean log10 Kd (nM)": "1.32", "seen in": "6/6", "signal with controls": "1/18"}
{"CDR-L1": "FLMQSWDYESRNKNSVA", "CDR-L2": "NASKRMS", "CDR-L3": "QQYHRLPLS", "group": "GP_Gibbs", "mean log10 Kd (nM)": "0.45", "seen in": "6/6", "signal with controls": "0/18"}
{"CDR-L1": "SMSNAHFNPDNWKNSIA", "CDR-L2": "DAEHVAY", "CDR-L3": "QQYSRLPIT", "group": "En_Gibbs", "mean log10 Kd (nM)": "0.35", "seen in": "6/6", "signal with controls": "0/18"}
{"CDR-L1": "HLKQVLNGVNKKMNSVA", "CDR-L2": "HMNTREQ", "CDR-L3": "QQYDRLPLV", "group": "En_Gen", "mean log10 Kd (nM)": "1.45", "seen in": "6/6", "signal with controls": "0/18"}
{"CDR-L1": "QLLMATMTETYNRNSVA", "CDR-L2": "NAETRED", "CDR-L3": "QSYHRLPLS", "group": "En_HC", "mean log10 Kd (nM)": "nd", "seen in": "0/6", "signal with controls": "1/18"}

The authors averaged sequences with at least three values out of six and counted those with two or fewer as poor binders. A sequence measured in both rounds can read differently, since the two assays cover different ranges. Background: pairings of all light chain designs with three empty control strains gave a value in 4% of cases (median 2.64, 5th percentile 1.59). Values in that range, when seen in few replicates, are hard to tell from nonspecific mating. For each scFv, signals with the empty controls are counted beside the result. Of ten entries with the parent sequence, four were seen in most replicates (averages 0.34 to 2.37), three in one and three in none, so single entries are noisy.

Source: Li et al. 2023 (doi:10.1038/s41467-023-39022-2), MIT Lincoln Laboratory and A-Alpha Bio; data file from the FLAb repository.